Data on one compound can be found in patent publication US8748451B2, “HDAC inhibitors and therapeutic methods of using same” (The Board of Trustees of the University of Illinois, priority 2009, dated 2014).

Chains of the proteins cited; added tags and fusions are not shown. Lines headed by an entry give the natural chain unless they say otherwise; changes in a name come on top.
UniProt Q96DB2: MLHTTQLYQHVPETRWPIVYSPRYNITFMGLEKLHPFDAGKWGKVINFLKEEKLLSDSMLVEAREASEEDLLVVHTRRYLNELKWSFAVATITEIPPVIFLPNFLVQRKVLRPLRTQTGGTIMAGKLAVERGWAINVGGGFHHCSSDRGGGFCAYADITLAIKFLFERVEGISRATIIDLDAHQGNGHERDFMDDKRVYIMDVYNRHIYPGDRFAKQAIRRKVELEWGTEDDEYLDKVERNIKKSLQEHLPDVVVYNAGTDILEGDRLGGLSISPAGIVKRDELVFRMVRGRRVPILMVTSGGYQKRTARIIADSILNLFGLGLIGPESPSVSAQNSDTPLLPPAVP

The assay deals with HDAC11 (Homo sapiens (Human), UniProt Q96DB2). Briefly: HDAC11 inhibition assay. In kind it is biochemical. Particulars: mean of two experiments; read-out: HDAC11 IC50 (μM) ± SD.

For `O=C(CCCCCCC(=O)Nc1ccc([C@H]2O[C@@H](CSc3nc(-c4ccccc4)c(-c4ccccc4)o3)C[C@@H](c3ccc(CO)cc3)O2)cc1)NO` [Tubacin], the IC50 was 3.79 ± 0.1 µM.

The IC50 is the point on the concentration scale where inhibition reaches its midpoint.
